# Ab-14 light chain CDR variants: yeast mating affinities

Antigen: PDVDLGDISGINAS, a 14-residue peptide of the SARS-CoV-2 spike HR2 region.

Ab-14 is the parent antibody, in scFv form: VH, then a 15-residue (Gly4Ser)3 linker, then VL. The heavy chain is unchanged in all variants.
VH: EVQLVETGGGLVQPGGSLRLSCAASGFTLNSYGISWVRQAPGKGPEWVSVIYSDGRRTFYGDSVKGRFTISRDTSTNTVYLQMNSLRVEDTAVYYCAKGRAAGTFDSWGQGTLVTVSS
VL: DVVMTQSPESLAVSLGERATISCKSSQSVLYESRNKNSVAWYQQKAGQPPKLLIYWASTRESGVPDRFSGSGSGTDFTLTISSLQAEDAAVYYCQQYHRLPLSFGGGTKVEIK

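The parent was found by panning a naive human phage display library on the peptide. These sequences belong to a second round, designed from the earlier measurements on random variants of the parent. Group labels follow the data file (Ctrl: baseline library sampled from a position-specific scoring matrix, with some repeated check sequences; Rand: our label for a block that the file lists under HC and that is probably the random mutants of the ten best first-round binders; En: ensemble of fine-tuned language models; GP: Gaussian process model; HC: hill climbing; Gen: genetic algorithm; Gibbs: Gibbs sampling; a sequence that several methods proposed may carry one label only). The scFvs were displayed on barcoded MATa yeast, the peptide on MATalpha yeast. Mating (16 h, 30 °C) was followed by selection of diploids and sequencing of their barcodes. The ratio of observed to expected reads was calibrated, replicate by replicate, on BCL2-family standards whose Kd was known from biolayer interferometry. Each pool was mated in six replicate cultures.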

The parent's light chain CDRs are KSSQSVLYESRNKNSVA, WASTRES, QQYHRLPLS; each variant's own CDRs replace them letter for letter.
Scale: log10 of Kd in nM, estimated from mating counts; low values are strong binders.
Replicates are averaged; those with no signal do not enter the mean.
A pair that was not seen in any replicate is written "not detected"; this usually means weak binding, but a binder can also be missed.
Entries are sorted by rising average, undetected variants last.
Three control strains display no target. For all light chain designs, 4% of the pairings with them gave a signal, with a median of 2.64 and one signal in twenty below 1.59, so weak values seen in few replicates may be background. Also given: how often the same scFv was detected with the empty control strains.

CDR-L1 | CDR-L2 | CDR-L3 | group | mean log10 Kd (nM) | seen in | empty controls
KLQQGVLMESRNKNSVA | NAGQREE | QQYHRLPLS | GP_Gibbs | -0.51 | 6 of 6 | 1 of 18
QVSQSFLYESRNKNSVA | GASTRES | QQYHRLPLS | GP_HC | -0.45 | 6 of 6 | 1 of 18
SVSQSLLYESRNKNSVA | DSSMRES | QQYHRLPLS | Ctrl | -0.39 | 6 of 6 | 1 of 18
KVSQSVLYESRNKNSVA | GASTRES | QQYHRLPLS | Ctrl+GP_Gen | -0.35 | 12 of 12 | 2 of 36
KVSQSVDYESRNKNSVA | EASTRES | QQYHRLPLS | GP_Gen | -0.28 | 6 of 6 | 0 of 18
KLQQSVLYESRNKNSVA | NASTRES | QDYHRLPLS | GP_Gen | -0.21 | 6 of 6 | 3 of 18
KLYESVGTMSHNKQSIA | DMERRED | QQYHRLPLS | En_HC | -0.19 | 6 of 6 | 0 of 18
TLGDVTRMESMKKNSIA | DMSNRAD | QQYHRLPLS | En_HC | -0.19 | 6 of 6 | 0 of 18
KQSQEVLQESRNKNSVA | DASTRES | QQYHRLPLS | GP_HC | -0.19 | 6 of 6 | 1 of 18
KLYQSVMYESRNKNSVA | NASTRES | QQYHRLPLS | GP_Gen | -0.12 | 6 of 6 | 1 of 18
HLSFSVLYESRNKNSVA | NASTRES | QQYHRLPLF | GP_HC | -0.09 | 6 of 6 | 0 of 18
KLQQSVLYESRNKNSVA | NASTRLS | QQYHRLPLS | GP_Gen | -0.04 | 6 of 6 | 0 of 18
KLQQSVLYESRNWNSVA | NASTRLS | QQYHRLPLS | GP_Gen | -0.02 | 6 of 6 | 2 of 18
KISQSVEYEDRNKNSVA | NASQRES | QQYHRLPLS | GP_Gen | 0.01 | 6 of 6 | 3 of 18
KLDQSTLYESRNQNSVA | WASTRES | QQYHRLPLS | GP_HC | 0.07 | 6 of 6 | 1 of 18
KLQQSEEYESRNKNSVA | NASTRLS | QQYHRLPLS | GP_Gen | 0.11 | 6 of 6 | 0 of 18
KLSQSELYESRMKNSVA | NASYRES | QQYHRLPLS | GP_Gen | 0.15 | 6 of 6 | 1 of 18
KSSISYLGEDRNKNSVA | EASTRES | QQYHRLPLS | GP_HC | 0.15 | 6 of 6 | 2 of 18
KSSQSQLYESSNKNSVA | NASTRES | QQYHRLPLS | Ctrl | 0.17 | 6 of 6 | 2 of 18
KISQSYLYEDRNHWSVA | NASTRLS | QQYHRLPLS | GP_Gibbs | 0.18 | 6 of 6 | 1 of 18
KLSLSVLYESRNKNSVA | DASTRES | QQYHRLPLS | GP_HC | 0.18 | 6 of 6 | 0 of 18
KLSQSMLYESRVKNSVA | NASQRES | QQYHRLPLS | GP_Gen | 0.20 | 6 of 6 | 2 of 18
KCSQSVLYESRNKNSVA | AASTRES | QQYHRLPLS | Ctrl | 0.21 | 6 of 6 | 1 of 18
AVVKMKSEGDYHAANVA | NANLRSD | QQYYRLPLI | En_Gibbs | 0.24 | 6 of 6 | 1 of 18
KITTSLYRWGSDKGAVA | EENIRAR | QQYFRLPFS | En_Gibbs | 0.28 | 6 of 6 | 0 of 18
KYYPSYLYESRNKNSVA | DASTRES | QQYHLLPLS | GP_HC | 0.28 | 6 of 6 | 0 of 18
TLTTVQGMESHNKNSVA | DLSTRGS | QQYHRLPLS | En_HC | 0.29 | 6 of 6 | 0 of 18
HSSFSVLYESRNKNNVA | NASTRES | QQYHRLPLS | GP_HC | 0.41 | 6 of 6 | 0 of 18
KFSQWVLYESRTKNSVA | NASQRES | QQYHRLPLS | GP_HC | 0.42 | 6 of 6 | 2 of 18
KMLQSVLYESRNKNSVA | HASTRED | QDYHRLPLS | GP_HC | 0.49 | 6 of 6 | 1 of 18
TISQLMWYESRNKNNVA | GTSTRES | QCYHRLPLS | En_HC | 0.49 | 6 of 6 | 2 of 18
KISQSVNYESRNKNSVA | WASTRES | QQYHRLPLS | Ctrl | 0.50 | 6 of 6 | 0 of 18
KLRQVTGYEMYNKNSVA | QTSTRAS | QDYHRLPLS | En_HC | 0.50 | 5 of 6 | 0 of 18
KSSQSVVYESQNNNSVA | DASTRES | QQYHRLPLS | Ctrl | 0.50 | 6 of 6 | 0 of 18
HSSPSVLYEDRNKNSVA | NASTRES | QQYHRLPLS | GP_Gibbs | 0.57 | 6 of 6 | 0 of 18
KISQMFYYESINQNSVA | QKSTREE | QDYHRLPLS | En_HC | 0.62 | 6 of 6 | 1 of 18
SMSNLQIVPDVWKNSIA | DAEHVEY | QQYSRLPLT | En_Gibbs | 0.64 | 6 of 6 | 1 of 18
KLAMALSVEFGTYHGVA | DADHRMK | QQYNRLPLS | En_Gibbs | 0.68 | 6 of 6 | 2 of 18
QLAVERGQEYKAGAAIA | GKTEKLH | QQYAMLPLS | En_Gibbs | 0.69 | 6 of 6 | 2 of 18
KYSQSVLYESRNKNSVA | MASTRES | QQYHRLPLS | Ctrl | 0.83 | 6 of 6 | 0 of 18
RMTYKAEQDERHNSSVA | NGSARVF | QQYYMLPLS | En_Gibbs | 0.99 | 6 of 6 | 1 of 18
KSSQSVLYESRNKNSVA | WADTRES | QQYHRLPLS | Ctrl | 1.22 | 6 of 6 | 2 of 18
YIDQASMTENDKGNSIA | EENHKYN | QQYFQLPLI | En_Gibbs | 1.22 | 3 of 6 | 1 of 18
MISQLYNMGQFAINSVA | QANLREE | QQYDRLPLM | En_Gen | 1.26 | 6 of 6 | 2 of 18
AIDSHGLGTQEYYNSIA | EESVKVR | QQYDKLPLS | En_Gibbs | 1.27 | 4 of 6 | 1 of 18
KFSQSVLNELRNKNSVA | HDSTRES | QQYHRLPLI | Ctrl | 1.34 | 6 of 6 | 1 of 18
KSLQSVLYESRNKNPVA | HAKTRED | QQYARLPLS | Rand | 1.38 | 6 of 6 | 1 of 18
KSSQSVLYESQNENSVA | WASTRES | QQYHRLPLS | Ctrl | 1.47 | 6 of 6 | 0 of 18
TISQVMNTLSRHGNNVA | DLAERED | QQYFRLPLS | En_Gen | 1.47 | 5 of 6 | 0 of 18
MISQLYNMGTFAINSVA | QAEIRNA | QQYDRLPLT | En_Gen | 1.50 | 6 of 6 | 0 of 18
KIGMTLNQLLHKQNNVA | DLVMREN | QQYHRLPLS | En_Gen | 1.57 | 5 of 6 | 1 of 18
KSSFSVLYESRNKNSVA | WASTRES | QQYHRLPLS | Ctrl | 1.58 | 1 of 6 | 0 of 18
KSSQSVLYESRNKNSVA | SASTRES | QQYHRIPLI | Ctrl | 1.64 | 6 of 6 | 1 of 18
KFAMGLDYNNAHKSAIA | HADIRNI | QQYFRLPLD | En_Gibbs | 1.75 | 6 of 6 | 2 of 18
KSSQSVLYESGNKNSVA | WASTRSS | QQYHRLPLS | Ctrl | 1.79 | 4 of 6 | 0 of 18
KIQDNLGTLMEQINSVA | ASEEIVD | QSYFRLPLS | En_Gibbs | 1.91 | 6 of 6 | 1 of 18
KIYEMTGFQSRNADSIA | DNSTRGR | QQYHRLPLS | En_HC | 2.02 | 6 of 6 | 1 of 18
HIQEVDNQVENQLGNVA | DANEYLA | QQYFQLPIS | En_Gibbs | 2.05 | 2 of 6 | 0 of 18
KSSQYVLYESQNKNHVA | QASTRPS | QCYHRLPLS | Ctrl | 2.13 | 3 of 6 | 0 of 18
TLYGLSNSMSTNKNSVA | EMTTREK | QQYDRLPLI | En_Gen | 2.23 | 1 of 6 | 0 of 18
KDSQSDLYESRNKNSVA | WASTRES | QQYHHLPLS | Ctrl | 2.31 | 6 of 6 | 1 of 18
KSSQSVEYESRSKNSVA | RASTRES | QQYHRLPLS | Ctrl | 2.34 | 5 of 6 | 0 of 18
KSSQSVLYESRTKNSVA | WASTRES | QQYHMHPLT | Ctrl | 2.58 | 1 of 6 | 0 of 18
HITMGMYVKGRHHSSIA | QAETRAK | QQYDRLPLI | En_Gen | 2.78 | 4 of 6 | 0 of 18
KLSMSMLMESRAKNSVA | ENSTRES | QHYHRLPLS | En_HC | 4.00 | 2 of 6 | 2 of 18
KSSQSVLYESRNKNSVA | WASYRES | QQYHRLPLS | Ctrl | not detected | 0 of 6 | 0 of 18
RLSIPMDYYMENRSSIA | EMTVKEM | QQYQKLPLA | En_Gibbs | not detected | 0 of 6 | 0 of 18
KFSQSVLYEKRTKNSVV | NASTRES | QQIHRGPLS | Rand | not detected | 0 of 6 | 0 of 18
KSSQSQLYETDNKNSVA | WASTREE | NQYHRLPLS | Ctrl | not detected | 0 of 6 | 0 of 18
DSSQSVLYYSRNKNSVA | WASTRES | QQYSRLPLS | Ctrl | not detected | 0 of 6 | 0 of 18
KSSQSVLYESRNFWSVA | NASTRES | QQYHRLPLS | GP_HC | not detected | 0 of 6 | 0 of 18
FLHGNIEYGNGNWSAIA | ENTERVD | QYYQHLPLA | En_Gibbs | not detected | 0 of 6 | 0 of 18
VSAQLVLCEDRNKNSVA | WASTRES | QQYHRLPIS | Ctrl | not detected | 0 of 6 | 0 of 18
QFAGAMYGGGNDNQNIA | EAMTYIK | QQYSRLPLI | En_Gibbs | not detected | 0 of 6 | 0 of 18
KSSQSVLYESRNKNSVA | WASTRSN | QQYHRAPLS | Ctrl | not detected | 0 of 6 | 0 of 18
MISQLINMGQFAINSVA | QASIRCN | QQYDRLPLM | En_Gen | not detected | 0 of 6 | 0 of 18

A selection of 8 entries from above:

CDR-L1 | CDR-L2 | CDR-L3 | group | mean log10 Kd (nM) | seen in | empty controls
KSSQSQLYESSNKNSVA | NASTRES | QQYHRLPLS | Ctrl | 0.17 | 6 of 6 | 2 of 18
TLGDVTRMESMKKNSIA | DMSNRAD | QQYHRLPLS | En_HC | -0.19 | 6 of 6 | 0 of 18
KLYESVGTMSHNKQSIA | DMERRED | QQYHRLPLS | En_HC | -0.19 | 6 of 6 | 0 of 18
KSSQYVLYESQNKNHVA | QASTRPS | QCYHRLPLS | Ctrl | 2.13 | 3 of 6 | 0 of 18
KDSQSDLYESRNKNSVA | WASTRES | QQYHHLPLS | Ctrl | 2.31 | 6 of 6 | 1 of 18
YIDQASMTENDKGNSIA | EENHKYN | QQYFQLPLI | En_Gibbs | 1.22 | 3 of 6 | 1 of 18
KFSQWVLYESRTKNSVA | NASQRES | QQYHRLPLS | GP_HC | 0.42 | 6 of 6 | 2 of 18
HIQEVDNQVENQLGNVA | DANEYLA | QQYFQLPIS | En_Gibbs | 2.05 | 2 of 6 | 0 of 18

Of ten entries with the parent sequence, four were seen in most replicates (averages 0.34 to 2.37), three in one and three in none, so single entries are noisy.
The authors averaged sequences with at least three values out of six and counted those with two or fewer as poor binders.
A sequence measured in both rounds can read differently, since the two assays cover different ranges.
A sequence that the file lists under several names has all its replicates pooled.

Source: Li et al. 2023 (doi:10.1038/s41467-023-39022-2), MIT Lincoln Laboratory and A-Alpha Bio; data file from the FLAb repository.